Results from patent US6500431B1, “Inhibitors of angiogenesis and tumor growth” (University of Southern California, priority 1998, dated 2002).

How the values were obtained:
[1] = tested on: KS Y-1 tumors; assay: Pentapeptide on growth of KS Y-1 tumors in mice; type: in vivo; details: 50 mg/kg subcutaneously daily from the day after implantation
Procedure: FIG. 6: Effect of pentapeptide DVCQD (SEQ ID NO:28) on the growth of estiblished KS Y-1 tumors in mice. Mice were implanted with the tumor on day one. Treatment with the peptide was started on the following day at a dose of 50 mg/kg subcutaneously daily.

[2] = tested on: KS Y-1 cells; assay: KS Y-1 cell proliferation assay (MTT); type: cell-based; details: for Cell Proliferation Activity (% of control), KSY-1: concentration not printed, 5 days, MTT
Procedure: (§1) To determine if Saposin B polypeptides had anti-angiogenic activity, a series of overlapping polypeptides were synthesized and tested in the KS Y-1 cell proliferation assay. The overlapping polypeptides are SEQ ID NOS:13 though 42. Cell Proliferation assays in either KS cells or fibroblast. Cells were plated in 48 well plates at equal numbers in appropriate culture medium. Cells were treated with the test compounds at various concentrations on day one, and on day 3. MTT was done on day 5. KS cells were used to represent the activated endothelial cells, while fibroblast cells represent the control cells. The results are remarkable for the lack of toxicity to the fibroblast relative to the activated endothelial cells/KS cells.

[3] = tested on: endothelial cells (HUVEC); assay: Growth inhibition of endothelial cells; type: cell-based; details: FIG. 1, 1D, 1E
Procedure: FIG. 1D: Activity of n-terminus decapeptide (DVCQDCIQMV; SEQ ID NO 21).
FIG. 1E: Activity of N-terminus pentapeptide (DVCQC; SEQ ID NO: 28).
By SDS-PAGE, the bacterial product was smaller than the eukaryotic protein. Because prokaryotically expressed proteins are not glycosylated, the difference in molecular weights probably represents the presence of carbohydrate in the eukaryotic protein. Recombinant proteins were then tested in KS, endothelial and control cell lines. Activity was found only in KS cell lines and endothelial cells.

[4] = tested on: T1 cells; assay: Fibroblast proliferation assay (MTT); type: cell-based; details: concentration not given, 5 days
Procedure: as §1, with “MTT was done on day 5.” left out

SMILES | tumor volume / activity in vivo [1] | IC50 [2] [µM] | Cell Proliferation Activity (% of control), KSY-1 ([2]; first of two KSY-1 value columns) | Cell Proliferation Activity (% of control), KSY-1 ([2]; second of two KSY-1 value columns) | growth inhibition of endothelial cells [3] | Cell Proliferation Activity (% of control), T1 [4] | Cell Proliferation Activity (% of control), T1 ([4]; first of two T1 value columns)
CC(C)[C@H](NC(=O)[C@@H](N)CC(=O)O)C(=O)N[C@@H](CS)C(=O)N[C@@H](CCC(N)=O)C(=O)N[C@@H](CC(=O)O)C(=O)O [SEQ ID NO:28, DVCQD] | active in vivo; also recorded: significantly smaller | 11.8 | 30 % of control | 10 % of control | Only endothelial cells show dose dependent growth inhibition | 87 % of control | 91 % of control
CC(C)[C@H](NC(=O)[C@@H](N)CC(=O)O)C(=O)N[C@@H](CS)C(=O)N[C@@H](CC(=O)O)C(=O)N[C@@H](CC(=O)O)C(=O)O [SEQ ID NO:40, DVCDD] | – | 12.2 | – | – | – | – | –

Entries after “also recorded” stand apart in the source; their conditions may differ.
